{"source": "paper PMC10222646", "about": "(Microorganisms, 2023)", "key": {"[1]": {"system": "human cell lines (HepG2, HEK293, Caco-2, THP-1, macrophage)", "settings": "100 μM AST, 48 h, HPLC-ICP-MS"}, "Caco-2": {"system": "Caco-2", "experiment": "MTT cytotoxicity assay, Caco-2", "settings": "read-out: LC50, Caco-2, 72 h"}, "HEK293": {"system": "HEK293", "experiment": "MTT cytotoxicity assay, HEK293", "settings": "read-out: LC50, HEK293, 72 h"}, "HepG2": {"system": "HepG2", "experiment": "MTT cytotoxicity assay, HepG2", "settings": "read-out: LC50, HepG2, 72 h"}, "THP-1": {"system": "THP-1", "experiment": "MTT cytotoxicity assay, THP-1", "settings": "read-out: LC50, THP-1, 72 h"}}, "data": [{"molecule": "C[As](=O)(O)CC[C@H](N)C(=O)O", "note": "[AST, 2-amino-4-(hydroxymethylarsinoyl)butanoate]", "values": [{"measurement": "stability: arsenic species in culture media and cell lysates", "setting": "[1]", "result": "almost exclusively AST"}]}, {"molecule": "Sodium (meta)arsenite", "values": [{"measurement": "CC50", "setting": "Caco-2", "result": "< 25", "unit": "µM"}, {"measurement": "CC50", "setting": "HEK293", "result": "< 25", "unit": "µM"}, {"measurement": "CC50", "setting": "HepG2", "result": "< 25", "unit": "µM"}, {"measurement": "CC50", "setting": "THP-1", "result": "< 25", "unit": "µM"}]}]}
